# scFv variants of Ab-14 (heavy chain) against a SARS-CoV-2 spike peptide

Source: Li et al. 2023 (doi:10.1038/s41467-023-39022-2), MIT Lincoln Laboratory and A-Alpha Bio; data file from the FLAb repository.

Target peptide (SARS-CoV-2 spike, HR2 region): PDVDLGDISGINAS

Parent: Ab-14, a human scFv built as VH, a 15-residue (Gly4Ser)3 linker, VL. Only the CDRs of the heavy chain vary.
VH: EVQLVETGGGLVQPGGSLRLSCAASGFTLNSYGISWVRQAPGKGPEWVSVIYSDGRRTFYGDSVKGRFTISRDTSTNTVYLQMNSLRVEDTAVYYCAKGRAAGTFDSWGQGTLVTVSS
VL: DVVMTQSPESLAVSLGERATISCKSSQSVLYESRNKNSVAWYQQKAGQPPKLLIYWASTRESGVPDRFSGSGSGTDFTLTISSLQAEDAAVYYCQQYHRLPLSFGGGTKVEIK

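The starting antibody came from a phage panning campaign against this peptide. The variants were designed computationally from a first round of random CDR variants and then made and measured. Several design methods are mixed in this list. In AlphaSeq, yeast of one mating type display the scFv and yeast of the other type display the target. The frequency of each diploid, read from paired DNA barcodes, reflects how well the two displayed proteins bind. The ratio of observed to expected reads was calibrated, replicate by replicate, on BCL2-family standards whose Kd was known from biolayer interferometry. Mating was done six times.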

The whole VH of each variant is written out.
Affinities are written as log10 Kd with Kd in nM; a lower number is a better binder.
Averages over replicates are reported, and they cover detected replicates only.
Where no diploid with the target was found in any replicate, the entry reads "not detected": below detection, most likely a poor binder, though not proof of it.

VH	mean, log10 nM	seen in
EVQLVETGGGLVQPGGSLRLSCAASGFNLNSYGISWVRQAPGKGPEWVSVIYSDGRRTFYGDPVKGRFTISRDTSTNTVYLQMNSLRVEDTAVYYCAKGRQAGTFDSWGQGTLVTVSS	1.71	3/6
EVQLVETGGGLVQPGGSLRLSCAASGFTLESYGISWVRQAPGKGPEWVSVIYSDGRRTFYGDDVKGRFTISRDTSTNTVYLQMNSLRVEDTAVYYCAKGRAAGTFTSWGQGTLVTVSS	3.14	2/6
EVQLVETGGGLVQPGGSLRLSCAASGFDLDEYGISWVRQAPGKGPEWVSVIYADGKRTAYADSVKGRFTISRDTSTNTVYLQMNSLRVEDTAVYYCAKGQNAGTFDVWGQGTLVTVSS	0.23	6/6
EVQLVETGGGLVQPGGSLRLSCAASGFTLNSYGISWVRQAPGKGPEWVSVIYSDGRRTFYGDSVKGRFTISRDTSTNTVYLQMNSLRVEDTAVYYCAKGSVAGTFDSWGQGTLVTVSS	0.39	5/6
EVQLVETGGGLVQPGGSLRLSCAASGFTLNDYGISWVRQAPGKGPEWVSVIYSLGRRTAYQDSRKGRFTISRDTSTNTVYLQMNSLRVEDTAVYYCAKGRAALTFISWGQGTLVTVSS	not detected	0/6
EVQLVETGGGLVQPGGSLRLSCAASGFTLNDYGISWVRQAPGKGPEWVSVIYFDGRRTFEGDSVKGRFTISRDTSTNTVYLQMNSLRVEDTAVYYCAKGRAALTFISWGQGTLVTVSS	not detected	0/6
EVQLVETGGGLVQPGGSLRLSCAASGFNLEDYGISWVRQAPGKGPEWVSVIYADGKRTFYADSVKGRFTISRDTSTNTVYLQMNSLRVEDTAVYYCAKGEVAGTFDVWGQGTLVTVSS	-0.47	6/6
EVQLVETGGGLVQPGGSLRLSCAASGFTLDSYGNSWVRQAPGKGPEWVSVIYSDMRTKFYGDSVKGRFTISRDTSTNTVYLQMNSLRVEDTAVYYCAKGRAAGTALTWGQGTLVTVSS	not detected	0/6

Continued, with the values leading:

mean, log10 nM	seen in	VH
0.00	6/6	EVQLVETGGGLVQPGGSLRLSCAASGFELNSYGISWVRQAPGKGPEWVSVIYSDGRRTFYADSVKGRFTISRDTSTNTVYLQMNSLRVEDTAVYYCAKGRTAGTFDFWGQGTLVTVSS
0.35	6/6	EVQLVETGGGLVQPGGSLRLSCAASGFDINEYGISWVRQAPGKGPEWVSVIYADGMRTFYADSVKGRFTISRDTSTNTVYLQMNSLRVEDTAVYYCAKGNQAGTFDLWGQGTLVTVSS
0.32	5/6	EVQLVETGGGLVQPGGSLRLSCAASGFTLNSYGISWVRQAPGKGPEWVSVIYSDGRRTFYHDSVKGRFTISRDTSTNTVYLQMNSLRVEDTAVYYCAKGQEAGTFDSWGQGTLVTVSS
-0.41	6/6	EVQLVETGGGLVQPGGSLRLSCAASGFDLNEYGISWVRQAPGKGPEWVSVIYADGMRTSYADSVKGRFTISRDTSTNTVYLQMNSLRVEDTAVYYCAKGNQAGTFDVWGQGTLVTVSS
0.68	5/6	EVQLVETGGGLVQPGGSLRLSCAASGFDLNSYGISWVRQAPGKGPEWVSVIYSDGRRTFYHDSVKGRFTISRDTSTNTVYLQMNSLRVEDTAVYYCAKGRHAGTFDSWGQGTLVTVSS
not detected	0/6	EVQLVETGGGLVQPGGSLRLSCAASGFTLNSYGISWVRQAPGKGPEWVSVIYSDGRRTFYGDSVKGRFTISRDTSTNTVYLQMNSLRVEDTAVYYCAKGQAKGTFDSWGQGTLVTVSS
not detected	0/6	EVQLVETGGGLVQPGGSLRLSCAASGDNLDEYGISWVRQAPGKGPEWVSVIYADGHRTAYSDPVKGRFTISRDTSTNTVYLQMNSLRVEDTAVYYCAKGEWGVTVGQWGQGTLVTVSS
1.76	1/6	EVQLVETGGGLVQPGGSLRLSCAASGFTLNSYGISWVRQAPGKGPEWVSVIYSDGRRTFYIDSVKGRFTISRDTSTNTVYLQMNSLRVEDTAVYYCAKGQVAGTFDTWGQGTLVTVSS
not detected	0/6	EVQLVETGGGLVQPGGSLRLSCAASGFDLNSYGISWVRQAPGKGPEWVSVIYSDGRRTFYGDSVKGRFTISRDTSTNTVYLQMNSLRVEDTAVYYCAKGRSAGTFNSWGQGTLVTVSS

Of ten entries with the parent sequence, four were seen in most replicates (averages 0.34 to 2.37), three in one and three in none, so single entries are noisy.
In the paper, a design with two or fewer of six values counts as a poor binder.
Values of this round are not directly comparable with the first-round values of the same sequences.
Nonspecific signal, from three strains lacking the peptide, appeared in 1% of pairings of all heavy chain designs, centred on 2.08 (5% of these signals below 0.84); values are not corrected for it.